# Measured affinities in a library of Ab-14 heavy chain variants

Antigen: PDVDLGDISGINAS, a 14-residue peptide of the SARS-CoV-2 spike HR2 region.

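The parent was found by panning a naive human phage display library on the peptide. These sequences belong to a second round, designed from the earlier measurements on random variants of the parent. Their group label is 14H_Ctrl (Ctrl: baseline library sampled from a position-specific scoring matrix, with some repeated check sequences). AlphaSeq pools MATa yeast showing the antibodies with MATalpha yeast showing the peptide. Pairs that bind mate more often; barcode pairs of the diploids are counted by sequencing. A regression on co-assayed BCL2-family reference pairs converts the normalised counts of each replicate to an apparent Kd. Each pool was mated in six replicate cultures.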

Ab-14 is the parent antibody, in scFv form: VH, then three GGGGS repeats, then VL. The light chain is unchanged in all variants.
VH: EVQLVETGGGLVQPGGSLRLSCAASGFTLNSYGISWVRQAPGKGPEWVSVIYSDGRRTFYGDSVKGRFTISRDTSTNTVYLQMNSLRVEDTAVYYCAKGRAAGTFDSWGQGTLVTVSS
VL: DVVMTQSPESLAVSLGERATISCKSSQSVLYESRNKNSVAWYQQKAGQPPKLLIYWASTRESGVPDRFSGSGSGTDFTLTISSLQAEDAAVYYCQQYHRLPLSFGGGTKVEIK

Positions count from residue 1 of the parent VH; F59A puts A in place of F.
Numbers give log10(Kd / nM), so 0 is 1 nM and 3 is 1 µM. Smaller is tighter.
"ND" means that the variant was in the library but no mating with the target was seen in that replicate; the authors take this as a sign of poor binding, and no number exists.
The authors averaged sequences with at least three values out of six and counted those with two or fewer as poor binders.
Background: pairings of all heavy chain designs with three empty control strains gave a value in 1% of cases (median 2.08, 5th percentile 0.84). Values in that range, when seen in few replicates, are hard to tell from nonspecific mating. For each scFv, signals with the empty controls are counted beside the result, with their mean in brackets.
A sequence measured in both rounds can read differently, since the two assays cover different ranges.

changes,"replicates, log10 nM",control signals
F59A+G99T+T104Q+D106I,1.79 / ND / ND / ND / ND / ND,0 of 18
G33W+G103L,ND / ND / ND / ND / ND / ND,0 of 18
L29N+S31D+A101S+S107Q,ND / ND / ND / ND / ND / ND,0 of 18
T28H+S31E+F59A+G61K+R100N,0.87 / 0.63 / 0.65 / 0.84 / 1.01 / 0.86,1 of 18 (2.41)
N30D+S31T+R100A+A101V+G103K+F105Y,ND / ND / ND / ND / ND / ND,0 of 18
F27A+S31E+V64R,ND / ND / ND / ND / ND / ND,0 of 18
T28D+D62G+S63D,ND / 1.85 / 2.77 / ND / 2.06 / 0.72,0 of 18
F59G+S63D+A101L,1.27 / 1.16 / ND / 1.06 / 0.97 / 2.11,0 of 18
S53R+A102S,ND / ND / ND / ND / ND / ND,0 of 18
S31D+R56Y+R100S+A101E+A102T,ND / ND / ND / ND / ND / ND,0 of 18
S31T+F59G,1.43 / ND / 1.78 / ND / 2.24 / 1.08,1 of 18 (3.03)
S31E+F59H+R100Q+A102E+S107D,ND / ND / ND / ND / ND / 3.36,2 of 18 (2.04)
F59M+G61D+A101T,0.96 / 0.23 / -0.07 / 1.31 / -0.03 / 0.64,0 of 18
S63K+A102P,ND / ND / 1.97 / ND / ND / 2.54,0 of 18
T28S+N30L+R56L+T58V+G61R,ND / ND / ND / ND / ND / ND,0 of 18
G61E+G99T,ND / ND / ND / ND / ND / ND,0 of 18
F27T+F59Y+G61L+R100A,ND / 2.59 / 2.19 / ND / 2.13 / ND,0 of 18
S31D+G61H+V64F,ND / ND / ND / ND / ND / ND,0 of 18
R100Q+G103V,ND / ND / ND / ND / ND / ND,0 of 18
S53A+G61I+D62V+S63A,ND / ND / ND / ND / ND / ND,0 of 18
S35K+A102S+F105M+D106N,ND / ND / ND / 1.89 / ND / ND,0 of 18
T28N+K65D+F105T,ND / ND / ND / ND / ND / ND,0 of 18
F59A+G61I+D106T,ND / ND / ND / ND / ND / ND,0 of 18
T28D+N30E+S31E+S53F+G61T+S107C,0.43 / 0.29 / 0.00 / 0.46 / 0.26 / 0.60,1 of 18 (1.83)
T28R+S31E+S53A+A101Q+A102M,ND / ND / ND / ND / ND / ND,0 of 18
G55A+G61H+A101D,ND / ND / ND / ND / ND / ND,0 of 18
S31Q+G103A,ND / ND / ND / ND / ND / ND,0 of 18
F59S+D106F,ND / ND / ND / ND / ND / ND,0 of 18
N30L+S31K+F105W,ND / ND / ND / ND / ND / ND,1 of 18 (0.39)
T28M+T58V+S63R+G103L,ND / ND / ND / ND / ND / ND,1 of 18 (2.06)
T58M+G61S+A101E,0.09 / -0.26 / 0.85 / 0.18 / -0.05 / -0.30,1 of 18 (1.46)
A101T+F105I+D106S,ND / ND / ND / ND / ND / ND,0 of 18
T28D+F59S+T104L,ND / ND / ND / ND / ND / ND,1 of 18 (2.73)
R56L+G61T+T104A,1.49 / ND / 1.42 / ND / 2.19 / 2.93,0 of 18
T28N+A102M,ND / ND / ND / ND / ND / ND,1 of 18 (2.64)

For reference, 5 entries of the list once more:

changes,"replicates, log10 nM",control signals
T28N+A102M,ND / ND / ND / ND / ND / ND,1 of 18 (2.64)
N30D+S31T+R100A+A101V+G103K+F105Y,ND / ND / ND / ND / ND / ND,0 of 18
G61E+G99T,ND / ND / ND / ND / ND / ND,0 of 18
T28N+K65D+F105T,ND / ND / ND / ND / ND / ND,0 of 18
A101T+F105I+D106S,ND / ND / ND / ND / ND / ND,0 of 18

Values reported by Li et al. 2023, doi:10.1038/s41467-023-39022-2 (FLAb copy).